According to patent publication US20230097753A1, “ALPHA-HYDROXYLATED FATTY-ACID METABOLITES, MEDICAL USES AND USE AS BIOMARKERS” (UNIVERSITAT DE LES ILLES BALEARS, priority 2020, published 2023):

Assays:
SF-295 glioma cells = conditions: human, 24 h, 400 μM
U-118 MG glioma cells [1] = test: Cell survival by trypan blue vital exclusion staining, 2OHOA and oxythiamine; format: cell-based, human
U-251 MG = test: as above; format: cell-based, human
Method: FIG. 18. Effect of metabolite C17:1n-9 on the action of 2OHOA. […] Cell viability was determined by vital exclusion staining with trypan blue.
To study whether the metabolite C17:1n-9 can participate in the action of 2OHOA, the effect of pre-incubation with oxythiamine on cell survival and 2OHOA-regulated proteins was studied. To do this, the cell survival of different glioma and non-tumor cell lines treated with 2OHOA (400 μM, 72 hours) and pre-incubated or not with 2 mM […] (90 minutes) was analyzed by counting the cells with the vital exclusion stain with trypan blue. In addition, Western-blot 2OHOA-modulated proteins were studied. In glioma cells, a significant decrease in cell survival was observed after incubation with 2 mM oxythiamine for 72 hours.

U-251 MG glioma cells = test: Cell viability by violet crystal staining, 72 hours; format: cell-based, human; conditions: for IC50: 72 hours
Method: (§1) FIG. 14. Effect of 2OHOA sodium salt, OA and C17:1n-9 sodium salt on cell viability and proliferation of glioma cells. […] Viability was determined by violet crystal staining.
(§2) In order to evaluate the antiproliferative effect of C17:1n-9, its IC50, which corresponds to the amount of a compound needed to reduce cell viability in vitro by 50%, as well as its effect on the regulation of proteins involved in the mechanism of action of 2OHOA, were determined. […] Upon completion of treatment, IC50 was determined by violet crystal staining technique. […] The IC50 of 2OHOA was 1000 μM for non-tumor cells, MRC-5 and astrocytes.

U-118 MG glioma cells [2] = test: as above; format: cell-based, human; conditions: for IC50: 72 hours
Method: as §1, §2

U-118 MG glioma cells [3] = conditions: human, 24 h, 400 μM
[4] = test system: MRC-5 (human fibroblasts); test: Fatty acid composition by gas chromatography after treatment with 2OHOA; conditions: MRC-5, 2OHOA 400 μM for 24 hours

| Level of the fatty acid in cells after treatment with 2OHOA [4] [nmol/mg] | IC50 (U-251 MG glioma cells) [µM] | IC50 (U-118 MG glioma cells [2]) [µM] | SMILES | Level of the fatty acid in cells after treatment with 2OHOA (SF-295 glioma cells) [nmol/mg] | Cell death (U-118 MG glioma cells [1]; 2OHOA sodium salt 400 μM, 72 hours) [%] | Cell death (U-118 MG glioma cells [1]; 2OHOA sodium salt combined with 1 mM oxythiamine) [%] | Recovery in cell viability (U-118 MG glioma cells [1]; 2OHOA sodium salt combined with 1 mM oxythiamine vs 2OHOA alone) [%] | Cell death (U-118 MG glioma cells [1]; 2OHOA sodium salt combined with 2 mM oxythiamine) [%] | Recovery in cell viability (U-118 MG glioma cells [1]; 2OHOA sodium salt combined with 2 mM oxythiamine vs 2OHOA alone) [%] | Cell death (U-251 MG; 2OHOA 400 μM, 72 hours) [%] | Cell death (U-251 MG; 2OHOA combined with 2 mM oxythiamine) [%] | Recovery in cell viability (U-251 MG; 2OHOA combined with 2 mM oxythiamine vs 2OHOA alone) [%] | IC50 of 2OHOA relative to that of metabolite C17:1n-9 (U-251 MG glioma cells) [times] | IC50 of 2OHOA relative to that of non-hydroxy analogue OA (U-251 MG glioma cells) [times] | IC50 (U-251 MG glioma cells; Homo sapiens) [µM] | IC50 of 2OHOA relative to that of metabolite C17:1n-9 (U-118 MG glioma cells [2]) [times] | IC50 of 2OHOA relative to that of non-hydroxy analogue OA (U-118 MG glioma cells [2]) [times] | IC50 (U-118 MG glioma cells [2]; Homo sapiens) [µM] | Amount of fatty acid in 2OHOA-treated cells (U-118 MG glioma cells [3]) [nmol/protein] |
| --- | --- | --- | --- | --- | --- | --- | --- | --- | --- | --- | --- | --- | --- | --- | --- | --- | --- | --- | --- |
|  |  |  | CCCCCCCC/C=C\CCCCCCC(O)C(=O)O (stereo not shown) [2OHOA, 2-hydroxyoleic acid] | 9.31 ± 1.44 | 24.71±1.88 | 20.94±1.97 | 5 | 11.71±1.14 | 17.26 | 23.22±1.32 | 14.07±1.62 | 12 | 1.95 | 1.80 | 430 ± 9.67 | 1.90 | 1.92 | 433 ± 10.8 | 18.98±0.42 |
| 14.00 ± 1.92 | 220 ± 7.93 | 222 ± 9.09 | CCCCCCCC/C=C\CCCCCCC(=O)O [C17:1n-9, 8Z-heptadecenoic acid] |  |  |  |  |  |  |  |  |  |  |  |  |  |  |  |  |
